{"source": "patent US20200392084A1", "about": "(priority 2017, published 2020)", "key": {"[1]": {"assay": "Dynamic Vapor Sorption (DVS)"}, "[2]": {"assay": "Salt disproportionation studies", "conditions": "slurried in deionised water, ambient temperature, ca. 24 hrs"}, "[3]": {"assay": "Primary salt screen stability stress test 40° C./75% RH ca. 48 hours", "conditions": "primary screen solid from acetone"}}}
{"substance": "sulfasalazine triethanolamine (1:1) salt", "values": [{"measurement": "XRPD pattern after DVS analysis", "setting": "[1]", "value": "unchanged"}, {"measurement": "hygroscopicity by DVS isotherm plot", "setting": "[1]", "value": "moderately hygroscopic"}, {"measurement": "DVS mass uptake", "setting": "[1]; at 90% RH, 25° C., listed as salt from triethanolamine", "value": 3.9, "unit": "%"}, {"measurement": "Salt disproportionation, XRPD", "setting": "[2]", "value": "Amorphous"}, {"measurement": "XRPD pattern after stability stress test", "setting": "[3]", "value": "same XRPD pattern"}]}
